This is a selection; strong and weak results do not stand in their true shares. Potency and affinity values are given separately. Some results for these compounds are left out of this collection, so the calls shown say nothing about other tests. Calls of active or inactive are those of the source. No rule for the calls is given here.
Experiment: modified counter assay using GFP fluorescence, PhoP regulon inhibitor project, dose response (AID 1985)
Settings: S. Typhi, 4 h; at 150 µM (top of the series)

SMILES	inhibition
COc1ccc(C(=O)NCC2(N(C)C)CCCCC2)cc1	inactive: -8.98%
